Test system: human erythrocytes
Experiment: Erythrocyte hemolytic activity
Assay type: cell-based
Details: 3.125 μM, 1 hour at 37° C., absorbance 414 nm, Triton X-100 = 100%
Description: To determine the cytotoxicity of the peptide, the erythrocyte hemolytic activity was measured as described below.
Specifically, human erythrocytes were washed 3 times with PBS (phosphate-buffered saline, pH 7.0) buffer solution, and then 8.0% erythrocyte solution diluted with PBS buffer was loaded in an amount of 10042 to each wall of a 96-well microtiter plate. Then, the peptide solution of the present invention was mixed therein at a concentration of 1.5, 3.125, 6.25, 12.5, 25, 50, 100, or 200 μM/well, followed by culture for 1 hour at 37° C. After that, the absorbance at a wavelength of 414 nm was measured. As a control group, melittin as a known antimicrobial peptide was treated at the same concentrations. By setting the absorbance of a treatment with 0.1% Triton X-100 at 100% as a control group that is served as a reference of hemolysis level of erythrocytes, the hemolysis rate of each peptide, i.e., hemolysis, was calculated using the following mathematical formula 1. Erythrocyte disrupting ability (%)=(Absorbance A−Absorbance B)/(Absorbance C−Absorbance B)×100 [Mathematical formula 1] […]

CC[C@H](C)[C@H](NC(=O)CN)C(=O)NCC(=O)N[C@@H](C)C(=O)N[C@H](C(=O)N[C@@H](CC(C)C)C(=O)N[C@@H](CCCCN)C(=O)N[C@H](C(=O)N[C@@H](CC(C)C)C(=O)N[C@H](C(=O)N[C@H](C(=O)NCC(=O)N[C@@H](CC(C)C)C(=O)N1CCC[C@H]1C(=O)N[C@@H](C)C(=O)N[C@@H](CC(C)C)C(=O)N[C@H](C(=O)N[C@@H](CO)C(=O)N[C@@H](Cc1c[nH]c2ccccc12)C(=O)N[C@H](C(=O)N[C@@H](CCCCN)C(=O)N[C@@H](CCCNC(=N)N)C(=O)N[C@@H](CCCCN)C(=O)N[C@@H](CCCNC(=N)N)C(=O)N[C@@H](CCC(N)=O)C(=O)N[C@@H](CCC(N)=O)C(N)=O)[C@@H](C)CC)[C@@H](C)CC)[C@@H](C)O)[C@@H](C)O)C(C)C)C(C)C [melittin]
hemolytic activity (hemolysis rate): at least 55%
